# Curated experimental data: intrinsic clearance values

From the experimental data distributed with OPERA 2.9.

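These are experimental values that the OPERA curators gathered from public databases to train and test their QSAR models. One number stands for a compound and property, with no spread given. Conditions of the individual experiments are not part of the data. Where a salt, mixture or single isomer is drawn, the source does not say that exactly this form was tested. Unmarked limits or estimates from the upstream databases cannot be ruled out.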

Intrinsic clearance (human, µL/min per 10^6 hepatocytes): higher is faster turnover, and 0 stands for none detected.

* O=C(Oc1ccccc1)c1ccccc1C(=O)Oc1ccccc1 [Diphenyl phthalate]: intrinsic clearance 584 µL/min/10^6 cells
* Cc1cc(Cl)ccc1OCC(=O)O [Mcpa]: intrinsic clearance 0 µL/min/10^6 cells
* O=S1(=O)OC(c2cc(Br)c(O)c(Br)c2)(c2cc(Br)c(O)c(Br)c2)c2ccccc21 [Bromophenol blue]: intrinsic clearance 0 µL/min/10^6 cells
* Cc1cccc([N+](=O)[O-])c1C [1,2-dimethyl-3-nitrobenzene]: intrinsic clearance 523 µL/min/10^6 cells
* Cc1cc(Cc2ccc(N)c(C)c2)ccc1N [4,4'-methylene bis(2-methylaniline)]: intrinsic clearance 3.984 µL/min/10^6 cells
* CC(c1ccc(O)cc1)c1ccc(O)cc1 [Bisphenol e]: intrinsic clearance 119 µL/min/10^6 cells
* CCCCC(CC)COC(=O)c1ccccc1C(=O)OCC(CC)CCCC (centres undefined) [Diethylhexyl phthalate (dehp)]: intrinsic clearance 2.65 µL/min/10^6 cells
* ClC(Cl)=C(c1ccc(Cl)cc1)c1ccc(Cl)cc1 [P,p'-dde]: intrinsic clearance 199 µL/min/10^6 cells
* Cc1ccc([N+](=O)[O-])cc1N [2-methyl-5-nitroaniline]: intrinsic clearance 22.4 µL/min/10^6 cells
* Cc1ccc([N+](=O)[O-])cc1C [1,2-dimethyl-4-nitrobenzene]: intrinsic clearance 454 µL/min/10^6 cells
* Nc1ccc(Cl)cc1 [4-chloroanulline]: intrinsic clearance 0 µL/min/10^6 cells
* Cc1ccccc1O [2-methylphenol]: intrinsic clearance 27.48 µL/min/10^6 cells
* Clc1cc(Cl)cc(-c2cc(Cl)cc(Cl)c2)c1 [Pcb80]: intrinsic clearance 0 µL/min/10^6 cells
* CCCCCCOC(=O)c1ccccc1C(=O)OCCCCCC [Dihexyl phthalate]: intrinsic clearance 27.7 µL/min/10^6 cells
* CCC(C)(c1ccc(O)cc1)c1ccc(O)cc1 [Bisphenol b]: intrinsic clearance 35.66 µL/min/10^6 cells
* Cc1ccccc1CO[C@H]1C[C@]2(C(C)C)CC[C@@]1(C)O2 [Cinmethylin]: intrinsic clearance 28.17 µL/min/10^6 cells
* ClC1C(Cl)C(Cl)C(Cl)C(Cl)C1Cl (centres undefined) [1,2,3,4,5,6-hexachlorocyclohexane]: intrinsic clearance 0 µL/min/10^6 cells
* C=CCC1=C(C)C(OC(=O)C2C(C=C(C)C)C2(C)C)CC1=O (mixture of isomers): intrinsic clearance 10.9 µL/min/10^6 cells
* O=C(O)COc1ccc(Cl)cc1Cl [2,4-d]: intrinsic clearance 0 µL/min/10^6 cells
* O=c1[nH]c2ccccc2n1CCCN1CCC(n2c(=O)[nH]c3cc(Cl)ccc32)CC1 [Domperidone]: intrinsic clearance 19.08 µL/min/10^6 cells
* CSc1nc(NC(C)C)nc(NC(C)C)n1 [Prometryn]: intrinsic clearance 35.78 µL/min/10^6 cells
* CC(C)(C)c1cc(C(C)(C)C)c(O)c(C(C)(C)C)c1 [2,4,6-tris(tert-butyl)phenol]: intrinsic clearance 40.7 µL/min/10^6 cells
* CON(C)C(=O)Nc1ccc(Cl)c(Cl)c1 [Linuron]: intrinsic clearance 33.05 µL/min/10^6 cells
* Cc1ccc(N)cc1N [2,4-diaminotoluene]: intrinsic clearance 0 µL/min/10^6 cells
* FCC(F)(F)F [1,1,1,2-tetrafluoroethane]: intrinsic clearance 0.02 µL/min/10^6 cells
* O=C(O)CCCOc1ccc(Cl)cc1Cl [2,4-db]: intrinsic clearance 0 µL/min/10^6 cells
* CC(C)(c1ccccc1)c1ccc(O)c(C(C)(C)c2ccccc2)c1 [2,4-bis(1-methyl-1-phenylethyl)phenol]: intrinsic clearance 128 µL/min/10^6 cells
* Nc1ccc2ccccc2c1 [2-naphthylamine]: intrinsic clearance 18.5 µL/min/10^6 cells
* COc1cc2c(c3oc(=O)c4c(c13)CCC4=O)[C@@H]1C=CO[C@@H]1O2 [Aflatoxin]: intrinsic clearance 3.49 µL/min/10^6 cells
* Clc1cc(Cl)c(-c2cc(Cl)c(Cl)cc2Cl)cc1Cl [Pcb153]: intrinsic clearance 0 µL/min/10^6 cells
* C=C(C)[C@H]1Cc2c(ccc3c2O[C@@H]2COc4cc(OC)c(OC)cc4[C@@H]2C3=O)O1 [Rotenone]: intrinsic clearance 20.92 µL/min/10^6 cells
* CCC(CC)Nc1c([N+](=O)[O-])cc(C)c(C)c1[N+](=O)[O-] [Pendimethalin]: intrinsic clearance 7.21 µL/min/10^6 cells

Extract of 5 entries:

| compound | name | intrinsic clearance (µL/min/10^6 cells) |
|---|---|---|
| Cc1cccc([N+](=O)[O-])c1C | 1,2-dimethyl-3-nitrobenzene | 523 |
| Nc1ccc2ccccc2c1 | 2-naphthylamine | 18.5 |
| O=C(O)CCCOc1ccc(Cl)cc1Cl | 2,4-db | 0 |
| Cc1ccccc1O | 2-methylphenol | 27.48 |
| O=C(Oc1ccccc1)c1ccccc1C(=O)Oc1ccccc1 | Diphenyl phthalate | 584 |